The values that follow are results of earlier work, collected in patent US6579853B2, “Brain cell or nerve cell-protective agents comprising ginsenoside Rb1” (Japan Science and Technology Corporation, priority 1998, dated 2003).

This data set deals with Bcl-xL protein. The settings on record: interleukin 3 0.6-15.0 ng/ml; cited from earlier work.

B1: interleukin 3 (protein, UniProt P08700 20-152, looked up)
Interleukin-3: APMTQTTPLKTSWVNCSNMIDEIITHLKQPPLPLLDFNNLNGEDQDILMENNLRRPNLEAFNRAVKSLQNASAIESILKNLLPCLPLATAAPTRHPIHIKDGDWNEFRRKLTFYLKTLENAQAQQTTLSLAIF
notes: peptide factor reported to facilitate the expression of Bcl-xL protein in nerve cells
In the case of B1, the “increase of the expression of Bcl-xL protein” value is “about 10%”.
